The values that follow come from patent publication US8143408B2, “N-(8-heteroaryltetrahydronaphtalene-2yl) or N-(5-heteroarylchromane-3-yl) carboxamide derivatives for the treatment of pain” (AstraZeneca AB, priority 2007, dated 2012).

Sequences of proteins named here, by UniProt entry; tags and fusion partners are left off.
UniProt Q15858, whole entry: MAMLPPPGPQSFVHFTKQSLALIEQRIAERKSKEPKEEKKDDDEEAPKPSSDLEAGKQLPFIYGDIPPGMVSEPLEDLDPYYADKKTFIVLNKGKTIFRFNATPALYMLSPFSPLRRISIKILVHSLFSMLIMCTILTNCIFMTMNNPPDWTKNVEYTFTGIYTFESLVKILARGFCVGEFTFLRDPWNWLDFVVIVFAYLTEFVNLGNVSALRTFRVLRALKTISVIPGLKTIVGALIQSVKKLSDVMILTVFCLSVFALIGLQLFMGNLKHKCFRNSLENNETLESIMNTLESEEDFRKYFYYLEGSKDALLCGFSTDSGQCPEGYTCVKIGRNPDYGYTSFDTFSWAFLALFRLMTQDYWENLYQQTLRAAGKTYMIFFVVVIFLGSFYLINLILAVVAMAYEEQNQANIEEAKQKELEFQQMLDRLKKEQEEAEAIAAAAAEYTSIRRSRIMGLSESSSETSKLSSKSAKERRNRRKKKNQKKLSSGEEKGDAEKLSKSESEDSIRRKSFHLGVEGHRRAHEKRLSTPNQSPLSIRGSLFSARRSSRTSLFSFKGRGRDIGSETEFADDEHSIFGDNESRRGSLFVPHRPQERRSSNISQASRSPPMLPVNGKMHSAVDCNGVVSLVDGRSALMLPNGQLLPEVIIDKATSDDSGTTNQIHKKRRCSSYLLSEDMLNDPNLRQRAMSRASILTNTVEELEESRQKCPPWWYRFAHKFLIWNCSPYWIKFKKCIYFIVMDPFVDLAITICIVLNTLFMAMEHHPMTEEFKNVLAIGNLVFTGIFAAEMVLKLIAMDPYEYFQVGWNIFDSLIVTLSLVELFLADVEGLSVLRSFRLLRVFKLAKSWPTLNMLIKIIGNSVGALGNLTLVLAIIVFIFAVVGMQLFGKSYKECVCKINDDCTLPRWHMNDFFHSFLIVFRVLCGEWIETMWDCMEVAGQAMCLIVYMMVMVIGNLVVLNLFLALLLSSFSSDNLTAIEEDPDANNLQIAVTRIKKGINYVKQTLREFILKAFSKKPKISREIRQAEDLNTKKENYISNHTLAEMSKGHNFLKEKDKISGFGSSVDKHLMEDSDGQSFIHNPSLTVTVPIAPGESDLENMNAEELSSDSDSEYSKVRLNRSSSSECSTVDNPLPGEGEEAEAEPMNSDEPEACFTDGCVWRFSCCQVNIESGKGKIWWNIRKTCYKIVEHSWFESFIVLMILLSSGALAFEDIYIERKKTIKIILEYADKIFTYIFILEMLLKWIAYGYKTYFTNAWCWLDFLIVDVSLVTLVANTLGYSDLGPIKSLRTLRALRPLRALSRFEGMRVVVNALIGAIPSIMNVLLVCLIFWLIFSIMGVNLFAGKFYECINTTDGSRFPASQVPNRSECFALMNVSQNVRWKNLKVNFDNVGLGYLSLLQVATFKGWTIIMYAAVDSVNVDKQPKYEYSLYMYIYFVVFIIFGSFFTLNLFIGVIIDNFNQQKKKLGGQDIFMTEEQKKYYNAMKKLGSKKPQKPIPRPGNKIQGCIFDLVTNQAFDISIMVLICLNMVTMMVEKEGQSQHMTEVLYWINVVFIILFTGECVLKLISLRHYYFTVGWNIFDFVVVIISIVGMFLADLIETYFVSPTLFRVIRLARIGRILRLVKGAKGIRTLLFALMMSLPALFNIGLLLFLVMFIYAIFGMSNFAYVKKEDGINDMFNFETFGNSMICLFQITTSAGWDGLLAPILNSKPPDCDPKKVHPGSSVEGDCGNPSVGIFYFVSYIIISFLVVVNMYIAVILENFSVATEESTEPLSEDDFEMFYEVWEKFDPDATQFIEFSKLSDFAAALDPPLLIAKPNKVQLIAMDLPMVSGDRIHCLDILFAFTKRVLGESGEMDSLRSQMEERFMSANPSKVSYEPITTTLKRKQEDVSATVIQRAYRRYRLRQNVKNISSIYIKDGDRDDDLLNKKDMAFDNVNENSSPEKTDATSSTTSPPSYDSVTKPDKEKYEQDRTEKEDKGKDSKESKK

For this test, the target named is T1, Nav1.7 voltage-gated sodium channel (Homo sapiens, UniProt Q15858).
T1 construct: Gene(s) encoding the full-length protein of the voltage-gated sodium channel of interest are cloned and expressed; expressed in transfected cells
Nature of the test: Whole-cell voltage clamp electrophysiology assay. The format is cell-based. Conditions: cells stably expressing the voltage-gated sodium channel of interest. The source says:
Gene(s) encoding the full-length protein of the voltage-gated sodium channel of interest are cloned and expressed under a suitable promoter in a suitable cell line, as well known in the art. […] Suitable screening assays are as follows.
Electrophysiological studies can be performed using automated patch-clamp electrophysiology platforms, like IonWorks HT, IonWorks Quattro, PatchXpress, QPatch or any other suitable platform. […] Suitable extracellular and intracellular buffer for such experiments are applied according to the instructions given by the manufacturer of the automated patch-clamp platforms. Cells that express the voltage-gated sodium channel protein of interest are exposed to drugs through the pipetting system integrated in the platforms. A suitable voltage stimulus protocol is used to activate the voltage-gated sodium channel proteins of interest through depolarisation from a defined holding potential.
Electrophysiological studies can also be performed using the whole cell configuration of the standard patch clamp technique. In this assay, cells that express the voltage-gated sodium channel protein of interest are exposed to the drugs by conventional microperfusion systems and a suitable voltage stimulus protocol is used to activate the voltage-gated sodium channels.
In turn, `O=C(N[C@@H]1COc2cccc(-c3cccnc3)c2C1)c1ccc(OC(F)(F)F)cc1` [Example 4, N-[(3S)-5-Pyridin-3-yl-3,4-dihydro-2H-chromen-3-yl]-4-(trifluoromethoxy)-benzamide] showed a half-inhibitory concentration (IC50) of 1260 nM.
The figure for `COc1ncc(-c2cccc3c2C[C@H](NC(=O)c2ccc(OCCC(F)(F)F)nc2)CO3)cn1` [Example 56, N-[(3S)-5-(2-methoxypyrimidin-5-yl)-3,4-dihydro-2H-chromen-3-yl]-6-(3,3,3-trifluoropropoxy)nicotinamide] is 79.4 nM; for `O=C(N[C@@H]1COc2cccc(-c3cccnc3)c2C1)c1ccc(OCC(F)(F)F)nc1` [Example 57, N-[(3S)-5-pyridin-3-yl-3,4-dihydro-2H-chromen-3-yl]-6-(2,2,2-trifluoroethoxy)nicotinamide] it is 79.4 nM; for `COc1ncc(-c2cccc3c2C[C@H](NC(=O)c2ccc(OCC(F)(F)F)nc2)CO3)cn1` [Example 86, N-[(3S)-5-(2-methoxypyrimidin-5-yl)-3,4-dihydro-2H-chromen-3-yl]-6-(2,2,2-trifluoroethoxy)nicotinamide] it is 79.4 nM.

Broadly, the IC50 is the concentration at which inhibition is half-maximal. High values mean weaker potency in that assay, low ones greater potency in that assay.
